Assay: Stability in blood (human blood plasma, HPLC)
Format: in vitro ADME

Row | Structure (SMILES) | (e) evaluation with respect to the stability in blood
1 | CC[C@H](C)[C@H](NC(=O)[C@H](CO)NC(=O)[C@H](CO)NC(=O)[C@@H](NC(=O)[C@H](CO)NC(=O)[C@H](CO)NC(=O)[C@H](CO)NC(=O)[C@H](Cc1ccc(O)cc1)NC(=O)[C@H](CC(N)=O)NC(=O)[C@H](N)CCCNC(=N)N)[C@@H](C)CC)C(=O)N[C@@H](CCCNC(=N)N)C(=O)N[C@@H](C)C(=O)N[C@@H](CS)C(=O)O | A (a peptide which remains in blood plasma over 1 hour)
2 | CC[C@H](C)[C@H](NC(=O)[C@H](CO)NC(=O)[C@H](CO)NC(=O)[C@@H](NC(=O)[C@H](CO)NC(=O)[C@H](CO)NC(=O)[C@H](CO)NC(=O)[C@H](Cc1ccc(O)cc1)NC(=O)[C@H](CC(N)=O)NC(=O)[C@H](N)CCCCN)[C@@H](C)CC)C(=O)N[C@@H](CCCNC(=N)N)C(=O)N[C@@H](C)C(=O)N[C@@H](CS)C(=O)O | A (a peptide which remains in blood plasma over 1 hour)
3 | CC[C@H](C)[C@H](NC(=O)[C@H](CO)NC(=O)[C@H](CO)NC(=O)[C@@H](NC(=O)[C@H](CO)NC(=O)[C@H](CO)NC(=O)[C@H](CO)NC(=O)[C@H](Cc1ccc(O)cc1)NC(=O)[C@H](N)CCCCN)[C@@H](C)CC)C(=O)N[C@@H](CCCNC(=N)N)C(=O)N[C@@H](C)C(=O)N[C@H](CS)C(=O)O | A (a peptide which remains in blood plasma over 1 hour)
4 | CC[C@H](C)[C@H](NC(=O)[C@H](CO)NC(=O)[C@H](CO)NC(=O)[C@@H](NC(=O)[C@H](CO)NC(=O)[C@H](CO)NC(=O)[C@H](CO)NC(=O)[C@H](Cc1ccc(O)cc1)NC(=O)[C@H](CC(N)=O)NC(=O)[C@H](N)CCCCN)[C@@H](C)CC)C(=O)N[C@@H](CCCNC(=N)N)C(=O)N[C@@H](C)C(=O)N[C@H](CS)C(=O)O | A (a peptide which remains in blood plasma over 1 hour)
5 | CC[C@H](C)[C@H](NC(=O)[C@H](CO)NC(=O)[C@H](CO)NC(=O)[C@@H](NC(=O)[C@H](CO)NC(=O)[C@H](CO)NC(=O)[C@H](CO)NC(=O)[C@H](Cc1ccc(O)cc1)NC(=O)[C@H](CC(N)=O)NC(=O)[C@@H](N)CCCNC(=N)N)[C@@H](C)CC)C(=O)N[C@@H](Cc1c[nH]cn1)C(=O)N[C@@H](C)C(=O)N[C@@H](CS)C(=O)O | C (a peptide which is completely degraded in blood plasma in 10 minutes to 30 minutes)
6 | CC[C@H](C)[C@H](NC(=O)[C@H](CO)NC(=O)[C@H](CO)NC(=O)[C@@H](NC(=O)[C@H](CO)NC(=O)[C@H](CO)NC(=O)[C@H](CO)NC(=O)[C@H](Cc1ccc(O)cc1)NC(=O)[C@@H](N)CCCCN)[C@@H](C)CC)C(=O)N[C@@H](CCCNC(=N)N)C(=O)N[C@@H](C)C(=O)N[C@@H](CS)C(=O)O | B (a peptide which is degraded in blood plasma in 30 minutes to 1 hour)
7 | CC[C@H](C)[C@H](NC(=O)[C@H](CO)NC(=O)[C@H](CO)NC(=O)[C@@H](NC(=O)[C@H](CO)NC(=O)[C@H](CO)NC(=O)[C@H](CO)NC(=O)[C@H](Cc1ccc(O)cc1)NC(=O)[C@H](CC(N)=O)NC(=O)[C@@H](CCCCN)NC(=O)CN)[C@@H](C)CC)C(=O)N[C@@H](CCCNC(=N)N)C(=O)N[C@@H](C)C(=O)N[C@@H](CS)C(=O)O | A (a peptide which remains in blood plasma over 1 hour)
8 | CC[C@H](C)[C@H](NC(=O)[C@H](CO)NC(=O)[C@H](CO)NC(=O)[C@@H](NC(=O)[C@H](CO)NC(=O)[C@H](CO)NC(=O)[C@H](CO)NC(=O)[C@H](Cc1ccc(O)cc1)NC(=O)[C@@H](CC(N)=O)NC(=O)[C@H](N)CCCCN)[C@@H](C)CC)C(=O)N[C@@H](CCCNC(=N)N)C(=O)N[C@@H](C)C(=O)N[C@@H](CS)C(=O)O | A (a peptide which remains in blood plasma over 1 hour)
9 | CC[C@H](C)[C@H](NC(=O)[C@H](CO)NC(=O)[C@H](CO)NC(=O)[C@@H](NC(=O)[C@H](CO)NC(=O)[C@H](CO)NC(=O)[C@H](CO)NC(=O)[C@H](Cc1ccc(O)cc1)NC(=O)[C@H](CC(N)=O)NC(=O)[C@H](CCCCN)NC(=O)[C@H](CCCCN)NC(C)=O)[C@@H](C)CC)C(=O)N[C@@H](CCCNC(=N)N)C(=O)N[C@@H](C)C(=O)N[C@@H](CS)C(=O)O | A (a peptide which remains in blood plasma over 1 hour)
10 | CC[C@H](C)[C@H](NC(=O)[C@H](CO)NC(=O)[C@H](CO)NC(=O)[C@@H](NC(=O)[C@H](CO)NC(=O)[C@H](CO)NC(=O)[C@H](CO)NC(=O)[C@H](Cc1ccc(O)cc1)NC(=O)[C@H](N)CCCCN)[C@@H](C)CC)C(=O)N[C@@H](CCCNC(=N)N)C(=O)N[C@@H](C)C(=O)N[C@@H](CS)C(=O)O | A (a peptide which remains in blood plasma over 1 hour)
11 | CC[C@H](C)[C@H](NC(=O)[C@H](CO)NC(=O)[C@H](CO)NC(=O)[C@@H](NC(=O)[C@H](CO)NC(=O)[C@H](CO)NC(=O)[C@H](CO)NC(=O)[C@H](Cc1ccc(O)cc1)NC(=O)[C@H](CC(N)=O)NC(=O)[C@@H](N)CCCNC(=N)N)[C@@H](C)CC)C(=O)N[C@@H](CCCNC(=N)N)C(=O)N[C@@H](C)C(=O)N[C@@H](CS)C(=O)O | C (a peptide which is completely degraded in blood plasma in 10 minutes to 30 minutes)
